{
  "sequences": {"note": "Chains of the proteins cited; added tags and fusions are not shown.", "UniProt P62942, whole entry, species assumed": "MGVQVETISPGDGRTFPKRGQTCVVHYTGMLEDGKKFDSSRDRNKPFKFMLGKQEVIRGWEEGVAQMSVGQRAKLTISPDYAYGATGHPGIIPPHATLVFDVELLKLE"},
  "source": "patent US6384056B1",
  "about": "“Heterocyclic thioesters or ketones for vision and memory disorders” (GPI NIL Holdings, Inc., priority 1998, dated 2002)",
  "biological_target": "FKBP12 (Homo sapiens, UniProt P62942)",
  "assay": "Ki test procedure: inhibition of peptidyl-prolyl isomerase (rotamase) activity, chymotrypsin-coupled assay",
  "format": "biochemical",
  "conditions": "apparent Ki",
  "excerpt": "The inhibition of the prolyl peptidyl cis-trans isomerase activity of FKBP may be measured as an indicator of this affinity.\nInhibition of the peptidyl-prolyl isomerase (rotamase) activity of the compounds used in the inventive methods and pharmaceutical compositions can be evaluated by known methods described in the literature (Harding et al., Nature, 1989, 341:758-760; Holt et al. J. Am. Chem. Soc., 115:9923-9938).\nThe cis-trans isomerization of an alanine-proline bond in a model substrate, N-succinyl-Ala-Ala-Pro-Phe-p-nitroanilide, is monitored spectrophotometrically in a chymotrypsin-coupled assay, which releases para-nitroanilide from the trans form of the substrate. The inhibition of this reaction caused by the addition of different concentrations of inhibitor is determined, and the data is analyzed as a change in first-order rate constant as a function of inhibitor concentration to yield the apparent Ki values. […]\nThe absorbance at 390 nm versus time is monitored for 90 seconds using a spectrophotometer and the rate constants are determined from the absorbance versus time data files.",
  "data": [
    {"substance": "3-Phenyl-1-propyl (2S)-1-(3,3-dimethyl-1,2-dioxopentyl)-2-pyrrolidinecarbothioate [Compound 30]", "values": [
      {"measurement": "Ki", "result": 11, "unit": "nM"}
    ]}
  ]
}
